Assay results published in PubChem BioAssay AID686979 (National Center for Advancing Translational Sciences (NCATS), 2013).
Only a part is listed here, and it is no random draw. Some of these compounds have results that are not shown, active ones among them. Results filed as inconclusive are left out. Calls of active or inactive are those of the source. The call rests on the fitted dose curve; in most records, active means well fitted inhibition curve with a large enough effect; inconclusive means small, poorly fitted or top-dose-only effect; inactive means flat fitted curve, though single readings scatter.

assay: qHTS for Inhibitors of human tyrosyl-DNA phosphodiesterase 1 (TDP1): qHTS in cells in presence of CPT; details: chicken DT40 Tdp1-/-;hTDP1 cells + 20 nM CPT, ATP luminescence, 48 h; series mostly up to 46.2 µM; activity change, negative = growth inhibition: at the top concentration; further: nearly all actives have a fitted effect of over 55% in size
On the % scale 0 is the no-effect control and ±100 the full control effect; potency means the concentration at half of the fitted maximal effect.

| SMILES | activity change, negative = growth inhibition | Potency |
| --- | --- | --- |
| CN(C)C1(CNC(=O)c2ccc(Br)cc2)CCCCC1 | inactive: -0.507% |  |
| COc1cc(C(=O)NCC2(N(C)C)CCCCC2)c([N+](=O)[O-])cc1OC | inactive: 12.3% |  |
| COc1ccc(C(=O)NCC2(N(C)C)CCCCC2)cc1Cl | inactive: 0.616% |  |
| COc1cccc(C(=O)NCC2(N3CCCCC3)CCCCC2)c1 | inactive: -0.105% |  |
| COc1ccc(Cl)cc1C(=O)NCC1(N(C)C)CCCCC1 | inactive: 0.416% |  |
| O=C(OC1CN2CCC1CC2)C(CO)(c1ccccc1)c1ccccc1 (stereo not drawn) | inactive: -0.752% |  |
| CC(C)COc1ccc(C(=O)NCC2(N(C)C)CCCCC2)cc1 |  | active: 20.6 µM |
| Cc1cccc(C(=O)NCC2(N(C)C)CCCCC2)c1 | inactive: 1.5% |  |
| COc1cc(C(=O)NCC2(N(C)C)CCCCC2)cc(OC)c1OC | inactive: 7.52% |  |
| C=C(C)C#CC(O)(C(=O)OC1CCN(C)CC1)c1ccccc1 (stereo not drawn) | inactive: -7.64% |  |
| CN(C)c1cccc(C(=O)NCC2(N(C)C)CCCCC2)c1 | inactive: -7.32% |  |
| CC(C)Oc1ccc(C(=O)NCC2(N(C)C)CCCCC2)cc1 |  | inactive |
| O=C(NCC1(N2CCCCC2)CCCCC1)c1cc([N+](=O)[O-])ccc1Cl | inactive: -0.249% |  |
| CN1[C@@H]2CC[C@H]1CC(OC(=O)C(O)(c1ccccc1)c1ccccc1)C2 (stereo partly drawn) | inactive: -0.81% |  |
| CC(C)N1C(=O)CC2(CCN(CCOC(=O)C(O)(c3ccccc3)c3ccccc3)CC2)C1=O | inactive: -4.8% |  |
| CCN(CC)CC(C)C(C)OC(=O)C(O)(c1ccccc1)c1ccccc1 (stereo not drawn) | inactive: -30% |  |
| CN(C)C1(CNC(=O)c2cccc(Cl)c2)CCCCC1 | inactive: 1.14% |  |
| COc1cc(SC)ccc1C(=O)NCC1(N(C)C)CCCCC1 | inactive: -0.454% |  |
| Cc1ccc(C(=O)NCC2(N3CCCCC3)CCCCC2)cc1 | inactive: -12.8% |  |
| Cc1ccccc1C(=O)NCC1(N2CCCCC2)CCCCC1 | inactive: 3.8% |  |
| CN(C)c1ccc(C(=O)NCC2(N(C)C)CCCCC2)cc1 | inactive: 4.5% |  |
| CN1CCCC(OC(=O)C(O)(c2ccccc2)c2ccccc2)C1 (stereo not drawn) | inactive: -4.06% |  |
| C=CCN1CCN(CCOC(=O)C(O)(c2ccccc2)c2ccccc2)CC1 | inactive: -1.57% |  |
| O=C(NCC1(N2CCCCC2)CCCCC1)c1cc(F)c(F)cc1Cl | inactive: -3.29% |  |
| Cc1cc(C(=O)NCC2(N3CCCCC3)CCCCC2)ccc1[N+](=O)[O-] | inactive: 3.28% |  |
| CCN1CCCC(OC(=O)C2(O)c3ccccc3C=Cc3ccccc32)C1 (stereo not drawn) | inactive: -9.06% |  |
| O=C(NCC1(N2CCCCC2)CCCCC1)c1cccc(Br)c1 | inactive: 7.05% |  |
| COc1ccc(C(=O)NCC2(N(C)C)CCCCC2)cc1 | inactive: 0.0725% |  |
